Like-named read-outs stand apart in the source and are kept apart here.
What was measured:
STING = molecular target: T1, STING (Homo sapiens, UniProt Q86WV6, G230A/H232R/R293Q/R71H); test: THP1-Dual reporter assay (IRF-luciferase, Quanti-Luc) for activation of STING; type: cell-based; conditions: Table 2, FIG. 18A; IRF signaling in THP-1 Dual reporter cells
T1 construct: host or cells: THP1-Dual cells

By UniProt entry, the sequences of proteins in these tests, tags left out.
UniProt Q86WV6, whole entry R71H/G230A/H232R/R293Q: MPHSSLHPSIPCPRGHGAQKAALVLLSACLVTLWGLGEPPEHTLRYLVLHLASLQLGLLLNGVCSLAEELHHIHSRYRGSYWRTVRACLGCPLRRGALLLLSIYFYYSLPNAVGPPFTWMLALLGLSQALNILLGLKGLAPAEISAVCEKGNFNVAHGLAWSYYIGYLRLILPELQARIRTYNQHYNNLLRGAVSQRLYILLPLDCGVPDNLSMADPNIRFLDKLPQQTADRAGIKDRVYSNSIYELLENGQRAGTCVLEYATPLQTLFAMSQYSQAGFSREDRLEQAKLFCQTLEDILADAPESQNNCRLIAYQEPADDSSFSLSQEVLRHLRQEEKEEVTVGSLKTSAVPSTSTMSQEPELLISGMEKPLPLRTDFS
UniProt Q86WV6, whole entry H232R: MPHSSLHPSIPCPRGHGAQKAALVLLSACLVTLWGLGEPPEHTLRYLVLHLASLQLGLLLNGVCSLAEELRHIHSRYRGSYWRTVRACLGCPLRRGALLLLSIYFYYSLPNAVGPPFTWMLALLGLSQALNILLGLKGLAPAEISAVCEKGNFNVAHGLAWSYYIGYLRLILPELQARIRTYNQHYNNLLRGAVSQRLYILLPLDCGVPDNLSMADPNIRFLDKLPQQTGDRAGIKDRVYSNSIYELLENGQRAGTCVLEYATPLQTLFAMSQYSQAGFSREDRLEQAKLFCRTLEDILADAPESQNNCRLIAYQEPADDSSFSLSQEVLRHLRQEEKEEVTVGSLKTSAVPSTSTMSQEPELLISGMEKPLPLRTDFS

[1] = molecular target: T2, recombinant human STING (hSTING; STING isoform 1) (Homo sapiens, UniProt Q86WV6); test: Isothermal calorimetry (ITC) binding to recombinant human STING; conditions: PEGylated conjugates, unit inferred, read-out: binding affinities to STING (KD)
T2 construct: made in house; host or cells: Escherichia coli (New England Biolabs, T7 Shuffle Express line)

[2] = FIG. 13
[3] = healthy mice, intravenous, approximately 0.012 μmol diABZI/mouse, 24 hours sampling

diABZI(CTA)-DMA-175k [175 kDa diABZI-DMA (34)]
EC50 (STING): 163 nM

diABZI-20k PEG [diABZI-20k PEG (18)]
Kd [1]: 767 ± 335 nM

100 kDa-poly(dimethylacrylamide-co-azidethylmethacrylate)-graft-diamidobenzimidazole) [100 kDa DMA-g-V/C-diABZI (29)]
particle formation by DLS [2]: no uniform particle formation | serum half-life [3]: ~4.4 h

diABZI(CTA)-DMA-25k [25 kDa diABZI-DMA (32)]
EC50 (STING): 123 nM

25 kDa-poly(dimethylacrylamide-co-azidethylmethacrylate)-graft-diamidobenzimidazole) [25 kDa DMA-g-V/C-diABZI (28)]
particle formation by DLS [2]: no uniform particle formation | serum half-life [3]: 1.1 h | serum half-life ([3]; listed as 28): approximately 1.07 hours

diABZI-V/C-20k PEG [diABZI-V/C-20k PEG (21)]
Kd [1]: 298 ± 290 nM

diABZI(CTA)-DMA-50k [50 kDa diABZI-DMA (33)]
EC50 (STING): 67.3 nM

Source: patent publication US20260124311A1, “POLYMER-DRUG CONJUGATES FOR STING PATHWAY ACTIVATION” (Vanderbilt University, priority 2022, published 2026)
